From publication PMC7764042

What was measured:
[1] = target: recombinant human interferon beta-1a (human) (UniProt P01574); test: SPR; IFN-β immobilised on ProteOn GLH chip by amine coupling; Ca^2+-loaded S100 as analyte (0.25–5 µM S100A1, 0.5–5 µM S100A4/A6, 5 µM other S100); 25 °C; 10 mM HEPES, 150 mM NaCl, 0.01% TWEEN 20, pH 7.4, 1 mM CaCl2; heterogeneous ligand model
[2] = target: recombinant human interferon alfa-2b (human) (UniProt P01563); test: SPR; IFN-α immobilised by amine coupling; S100 proteins as analyte; 25 °C; 10 mM HEPES, 150 mM NaCl, 0.01% TWEEN 20, pH 7.4
[3] = target: recombinant human S100A6 (human) (UniProt P06703); test: SPR; estimate from the SPR data for 0.5 µM S100 analyte on immobilised IFN-β, 1 mM CaCl2; dimer to monomers, Ca^2+-loaded S100

## recombinant human S100A6 (from UniProt P06703 1-90) (natural protein)
[1]
  Kd1 (KD, ligand population L1): 82 nM
  Kd2 (KD, ligand population L2): 267 nM
  kd1 (koff, ligand population L1): 0.00021 s⁻¹
  kd2 (koff, ligand population L2): 0.00407 s⁻¹
[2]
  Kd: > 10000 nM
[3]
  Kd: < 500 nM
